From US20130040935A1, “CYCLIC KETO-ENOLS FOR THERAPY” (BAYER INTELLECTUAL PROPERTY GMBH, priority 2010, published 2013)

By UniProt entry, the sequences of proteins in these tests, tags left out. Residues count along the entry.
UniProt O00763, 27-2458 limits assumed: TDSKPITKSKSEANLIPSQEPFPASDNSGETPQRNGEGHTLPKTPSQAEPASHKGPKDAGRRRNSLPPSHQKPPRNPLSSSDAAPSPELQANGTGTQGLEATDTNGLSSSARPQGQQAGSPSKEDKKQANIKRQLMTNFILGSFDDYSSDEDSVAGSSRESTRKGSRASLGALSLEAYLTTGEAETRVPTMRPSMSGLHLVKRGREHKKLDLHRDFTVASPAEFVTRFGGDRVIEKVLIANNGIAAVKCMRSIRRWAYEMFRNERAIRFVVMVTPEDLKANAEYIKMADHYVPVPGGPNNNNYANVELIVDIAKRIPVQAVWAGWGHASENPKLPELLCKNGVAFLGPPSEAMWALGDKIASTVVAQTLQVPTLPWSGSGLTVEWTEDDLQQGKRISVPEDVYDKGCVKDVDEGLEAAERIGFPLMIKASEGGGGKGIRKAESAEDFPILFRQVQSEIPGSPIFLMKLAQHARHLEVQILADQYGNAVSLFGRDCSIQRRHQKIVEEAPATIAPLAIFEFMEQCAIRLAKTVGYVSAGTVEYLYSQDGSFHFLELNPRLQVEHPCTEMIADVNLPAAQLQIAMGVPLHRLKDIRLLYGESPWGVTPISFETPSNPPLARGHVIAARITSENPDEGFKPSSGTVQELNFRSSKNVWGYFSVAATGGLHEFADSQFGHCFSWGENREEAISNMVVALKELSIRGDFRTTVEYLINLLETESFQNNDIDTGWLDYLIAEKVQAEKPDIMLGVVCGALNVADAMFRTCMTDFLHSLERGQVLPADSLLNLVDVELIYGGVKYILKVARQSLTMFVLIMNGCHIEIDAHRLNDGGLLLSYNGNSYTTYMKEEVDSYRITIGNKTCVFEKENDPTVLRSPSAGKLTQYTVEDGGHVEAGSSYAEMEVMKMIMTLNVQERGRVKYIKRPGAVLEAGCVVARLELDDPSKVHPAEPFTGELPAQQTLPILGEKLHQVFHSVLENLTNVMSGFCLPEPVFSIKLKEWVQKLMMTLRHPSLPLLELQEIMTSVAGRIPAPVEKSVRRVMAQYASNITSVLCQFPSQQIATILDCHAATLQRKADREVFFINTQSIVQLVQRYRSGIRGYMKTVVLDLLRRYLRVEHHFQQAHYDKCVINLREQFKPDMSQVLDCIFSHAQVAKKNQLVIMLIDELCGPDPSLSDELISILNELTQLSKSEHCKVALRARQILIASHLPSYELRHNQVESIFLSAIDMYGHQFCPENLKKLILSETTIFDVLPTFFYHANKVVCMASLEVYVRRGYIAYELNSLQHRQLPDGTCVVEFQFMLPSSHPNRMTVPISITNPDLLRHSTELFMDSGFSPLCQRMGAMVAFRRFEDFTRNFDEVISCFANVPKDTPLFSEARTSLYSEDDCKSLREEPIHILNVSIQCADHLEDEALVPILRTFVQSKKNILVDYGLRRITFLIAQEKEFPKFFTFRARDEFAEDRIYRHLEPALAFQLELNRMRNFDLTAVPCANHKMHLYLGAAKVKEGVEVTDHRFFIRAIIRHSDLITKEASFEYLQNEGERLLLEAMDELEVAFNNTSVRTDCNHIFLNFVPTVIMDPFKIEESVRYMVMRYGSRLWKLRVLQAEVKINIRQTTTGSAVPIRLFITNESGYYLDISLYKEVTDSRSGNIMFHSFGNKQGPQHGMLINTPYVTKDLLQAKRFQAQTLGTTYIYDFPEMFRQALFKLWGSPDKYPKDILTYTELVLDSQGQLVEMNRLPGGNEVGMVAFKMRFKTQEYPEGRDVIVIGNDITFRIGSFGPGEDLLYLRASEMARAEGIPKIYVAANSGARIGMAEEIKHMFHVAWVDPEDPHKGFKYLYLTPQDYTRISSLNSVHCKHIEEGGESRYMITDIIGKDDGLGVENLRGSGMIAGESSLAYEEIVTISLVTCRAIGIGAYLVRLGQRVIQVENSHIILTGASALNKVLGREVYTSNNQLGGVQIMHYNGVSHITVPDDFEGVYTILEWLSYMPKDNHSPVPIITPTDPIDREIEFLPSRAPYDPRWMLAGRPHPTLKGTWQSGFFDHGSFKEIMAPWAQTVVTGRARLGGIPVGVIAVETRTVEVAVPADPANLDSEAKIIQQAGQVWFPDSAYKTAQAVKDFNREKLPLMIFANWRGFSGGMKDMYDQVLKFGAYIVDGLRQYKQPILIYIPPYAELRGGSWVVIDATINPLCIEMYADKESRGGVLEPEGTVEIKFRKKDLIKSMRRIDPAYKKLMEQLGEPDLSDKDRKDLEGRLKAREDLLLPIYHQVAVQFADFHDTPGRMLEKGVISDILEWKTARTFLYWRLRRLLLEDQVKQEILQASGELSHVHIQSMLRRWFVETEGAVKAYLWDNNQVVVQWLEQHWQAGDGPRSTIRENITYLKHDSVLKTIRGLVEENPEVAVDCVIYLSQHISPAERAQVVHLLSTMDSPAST
UniProt O00763, 39-2458 limits assumed: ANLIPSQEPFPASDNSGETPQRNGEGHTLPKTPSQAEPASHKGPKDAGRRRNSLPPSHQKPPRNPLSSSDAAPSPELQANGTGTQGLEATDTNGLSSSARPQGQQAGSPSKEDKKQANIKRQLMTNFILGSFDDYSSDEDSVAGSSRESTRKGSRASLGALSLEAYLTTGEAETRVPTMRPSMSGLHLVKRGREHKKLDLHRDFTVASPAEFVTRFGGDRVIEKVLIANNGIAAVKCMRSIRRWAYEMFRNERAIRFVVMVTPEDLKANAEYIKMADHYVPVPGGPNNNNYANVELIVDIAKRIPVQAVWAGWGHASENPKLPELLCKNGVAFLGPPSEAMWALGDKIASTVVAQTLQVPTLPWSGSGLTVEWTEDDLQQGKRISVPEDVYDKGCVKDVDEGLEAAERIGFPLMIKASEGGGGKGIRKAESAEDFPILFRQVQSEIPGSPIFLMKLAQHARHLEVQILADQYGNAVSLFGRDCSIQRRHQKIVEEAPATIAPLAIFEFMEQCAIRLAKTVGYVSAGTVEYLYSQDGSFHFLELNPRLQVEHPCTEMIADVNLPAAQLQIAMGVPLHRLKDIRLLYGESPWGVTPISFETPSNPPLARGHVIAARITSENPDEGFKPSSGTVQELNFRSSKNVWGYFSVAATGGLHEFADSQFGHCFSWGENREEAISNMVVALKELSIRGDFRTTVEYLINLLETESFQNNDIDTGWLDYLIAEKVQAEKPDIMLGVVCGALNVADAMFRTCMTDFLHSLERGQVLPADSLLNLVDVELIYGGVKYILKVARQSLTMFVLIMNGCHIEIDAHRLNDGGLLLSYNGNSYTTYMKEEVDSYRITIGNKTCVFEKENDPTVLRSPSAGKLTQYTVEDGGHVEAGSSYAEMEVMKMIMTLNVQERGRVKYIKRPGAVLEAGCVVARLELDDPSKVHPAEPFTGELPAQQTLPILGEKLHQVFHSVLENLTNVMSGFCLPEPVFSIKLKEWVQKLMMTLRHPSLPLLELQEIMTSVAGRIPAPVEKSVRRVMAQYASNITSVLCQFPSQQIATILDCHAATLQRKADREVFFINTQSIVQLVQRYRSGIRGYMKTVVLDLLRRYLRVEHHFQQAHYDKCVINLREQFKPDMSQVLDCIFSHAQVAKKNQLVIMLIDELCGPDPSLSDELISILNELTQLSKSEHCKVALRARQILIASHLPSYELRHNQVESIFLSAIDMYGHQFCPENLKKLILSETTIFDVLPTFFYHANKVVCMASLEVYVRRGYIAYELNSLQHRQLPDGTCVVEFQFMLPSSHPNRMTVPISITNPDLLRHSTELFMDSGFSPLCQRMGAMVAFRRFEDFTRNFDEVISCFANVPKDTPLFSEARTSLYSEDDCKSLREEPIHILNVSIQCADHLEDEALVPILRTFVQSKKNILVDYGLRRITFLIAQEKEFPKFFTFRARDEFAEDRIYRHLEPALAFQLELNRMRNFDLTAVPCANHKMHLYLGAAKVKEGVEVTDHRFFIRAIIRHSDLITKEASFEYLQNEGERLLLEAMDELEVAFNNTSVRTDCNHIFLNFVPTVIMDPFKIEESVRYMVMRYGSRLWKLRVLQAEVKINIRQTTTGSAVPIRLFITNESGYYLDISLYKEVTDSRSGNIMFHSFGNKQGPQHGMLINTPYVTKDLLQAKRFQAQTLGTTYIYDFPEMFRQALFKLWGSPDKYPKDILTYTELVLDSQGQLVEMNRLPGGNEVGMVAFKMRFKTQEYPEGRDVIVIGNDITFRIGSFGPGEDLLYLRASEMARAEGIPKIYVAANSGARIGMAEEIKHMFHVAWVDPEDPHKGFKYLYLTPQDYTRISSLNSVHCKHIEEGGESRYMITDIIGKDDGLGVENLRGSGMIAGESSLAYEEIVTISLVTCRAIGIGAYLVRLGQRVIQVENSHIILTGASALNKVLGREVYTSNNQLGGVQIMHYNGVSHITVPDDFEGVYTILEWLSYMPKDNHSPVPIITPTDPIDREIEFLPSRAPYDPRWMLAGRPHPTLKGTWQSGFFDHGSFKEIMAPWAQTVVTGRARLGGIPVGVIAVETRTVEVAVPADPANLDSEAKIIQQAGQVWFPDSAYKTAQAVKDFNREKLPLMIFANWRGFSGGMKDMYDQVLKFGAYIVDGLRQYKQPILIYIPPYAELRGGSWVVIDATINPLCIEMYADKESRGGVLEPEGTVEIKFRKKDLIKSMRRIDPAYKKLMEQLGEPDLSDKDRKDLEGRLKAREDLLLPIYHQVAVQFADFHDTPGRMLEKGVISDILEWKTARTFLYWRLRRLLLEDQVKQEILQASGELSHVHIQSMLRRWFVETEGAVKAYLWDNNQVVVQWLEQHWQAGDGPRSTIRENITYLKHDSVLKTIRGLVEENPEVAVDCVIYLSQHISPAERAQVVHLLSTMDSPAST

Tests used:
[1] = target: human ACC1 (acetyl-coenzyme A carboxylase alpha transcript variant 1) (Homo sapiens, UniProt Q13085); experiment: Human ACC1 enzyme assay, Assay B1 (ADP-Glo); assay type: biochemical; conditions: read-out: ACC 1 (=B1) IC50
MCF7 = experiment: Cell proliferation assay (CellTiter-Glo, 96 h), MCF7; conditions: read-out: MCF7 IC50; Table 7; 96-hour incubation
Protocol: In accordance with the invention, the substances were tested in cell-based assays for the ability of the substances of inhibiting tumour cell proliferation after a 96-hour incubation with the substance. Cell viability was tested using the CellTiter-Glo® luminescent cell viability assay (Promega). The cells were sown at a density of 2000-5000 cells/well (depending on the cell line) in 100 μl growth medium on 96-well microtitre plates. For each cell line examined, cells were sown on a separate plate to determine the luminescence at t=0 hours and t=96 hours. After overnight incubation at 37° C., the luminescence values for the t=0 samples were determined. The dose plates for the t=96 hours points in time were treated with substances diluted with growth medium. The cells were then incubated at 37° C. for 96 hours, and the luminescence values for the t=96 hours sample were then determined. For data analysis, the t=0 values were subtracted from the t=96 hour values for treated and untreated samples. The differences in luminescence in percent between substance-treated samples and control values were used to determine the growth inhibition in percent.
The substances were tested in the following cell lines which represent the stated indications in an exemplary manner: […]

[2] = target: human ACC2 (acetyl-coenzyme A carboxylase 2) (Homo sapiens, UniProt O00763);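 further: human ACC2 activity read as ADP product, detected by luciferase glow luminescence after residual ATP removal, enzyme near 2 ng/µl in linear range, detection steps at 22 °C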
recombinant human ACC1 = recombinant human ACC1 (Homo sapiens, UniProt Q13085); experiment: Human ACC1 enzyme assay, Assay A1 (HTRF ADP immunoassay); conditions: read-out: ACC 1 (=A1) IC50;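 further: ADP generated by the enzyme quantified via competitive time-resolved FRET, read as europium cryptate to d2 energy transfer after 1 h at 22 °C with labelled ADP tracer and anti-ADP antibody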
[3] = target: acetyl-CoA carboxylase 2 (ACC2) (Homo sapiens, UniProt O00763); experiment: Human ACC2 enzyme assay, Assay A2 (HTRF ADP immunoassay); conditions: read-out: ACC 2 (=A2) IC50;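 further: ADP generated by ACC2 quantified via competitive time-resolved FRET between europium cryptate anti-ADP antibody and d2-tagged ADP, enzyme kept in linear range near 0.6 ng/µl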

| SMILES | IC50 [1] [µM] | IC50 (MCF7) [µM] | IC50 [2] [µM] | IC50 (recombinant human ACC1) [µM] | IC50 [3] [µM] |
| --- | --- | --- | --- | --- | --- |
| Cc1ccc(-c2ccc(Cl)cc2)cc1C1=C(O)C2(CCOC(C)C2)NC1=O (centres unmarked) | 0.643 | 0.31 | > 20 |  |  |
| CO[C@H]1CC[C@]2(CC1)NC(=O)C(c1cc(-c3ccc(F)cc3Cl)ccc1C)=C2O | 0.221 | 0.149 | 8.53 | 0.406 | 4.92 |
